Target: T1, PTP1B (Homo sapiens, UniProt P18031)
T1 sequence (P18031 1-435): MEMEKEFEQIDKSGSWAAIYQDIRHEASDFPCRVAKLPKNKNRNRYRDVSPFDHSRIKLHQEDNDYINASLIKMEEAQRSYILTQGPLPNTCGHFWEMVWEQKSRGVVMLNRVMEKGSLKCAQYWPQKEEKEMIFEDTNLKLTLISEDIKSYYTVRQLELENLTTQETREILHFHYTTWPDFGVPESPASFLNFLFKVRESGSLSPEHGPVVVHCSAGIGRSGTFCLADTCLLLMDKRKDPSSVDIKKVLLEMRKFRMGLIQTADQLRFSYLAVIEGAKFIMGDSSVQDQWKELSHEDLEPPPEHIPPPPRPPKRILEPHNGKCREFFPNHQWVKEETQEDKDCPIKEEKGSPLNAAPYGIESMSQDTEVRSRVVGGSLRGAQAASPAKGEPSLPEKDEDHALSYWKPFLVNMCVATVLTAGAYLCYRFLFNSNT
Assay: PTP1B inhibitory assay (pNPP, spectrocolorimetric)
Assay type: biochemical
Settings: pNPP substrate; three independent determinations
Protocol: To test the inhibitory activity of the compounds against PTP1B, a spectrocolorimetric method previously described was employed. The compounds and positive control were dissolved in DMSO or buffer solution [50 mM; Tris-HCI Buffer, pH 6.8], DL-dithiothreitol 1.5 mM, all from Sigma–Aldrich, St. Louis, MO, USA. Aliquots of 0–10 μL of testing compounds (triplicated) were incubated for 10 min at 37 °C with 85 μL of enzyme stock solution (3 μM) in buffer solution. After incubation, 5 μL of the substrate p-nitrophenyl phosphate (pNPP, 0.5 mM, Sigma–Aldrich, St. Louis, MO, USA) were added and incubated a further 25 min at 37 °C; then, the absorbance was recorded at 415 nm.

IC50: 62 ± 5.04 µM
SMILES: CC1(C)[C@@H](O)CC[C@]2(C)[C@H]3C(=O)C=C4[C@@H]5C[C@@](C)(C(=O)O)CC[C@]5(C)CC[C@@]4(C)[C@]3(C)CC[C@@H]12 [GA, glycyrrhetinic acid]
